This note sets out measurements from US9637472B2, “Substituted 6,5-fused bicyclic heteroaryl compounds” (Epizyme, Inc., priority 2011, dated 2017).

Sequences of proteins named here, by UniProt entry; tags and fusion partners are left off. A line that says so, or that is headed by a name, gives the form on record, which may keep a tag or linker.
UniProt Q15910, other isoform, or with tags, fused parts or gaps: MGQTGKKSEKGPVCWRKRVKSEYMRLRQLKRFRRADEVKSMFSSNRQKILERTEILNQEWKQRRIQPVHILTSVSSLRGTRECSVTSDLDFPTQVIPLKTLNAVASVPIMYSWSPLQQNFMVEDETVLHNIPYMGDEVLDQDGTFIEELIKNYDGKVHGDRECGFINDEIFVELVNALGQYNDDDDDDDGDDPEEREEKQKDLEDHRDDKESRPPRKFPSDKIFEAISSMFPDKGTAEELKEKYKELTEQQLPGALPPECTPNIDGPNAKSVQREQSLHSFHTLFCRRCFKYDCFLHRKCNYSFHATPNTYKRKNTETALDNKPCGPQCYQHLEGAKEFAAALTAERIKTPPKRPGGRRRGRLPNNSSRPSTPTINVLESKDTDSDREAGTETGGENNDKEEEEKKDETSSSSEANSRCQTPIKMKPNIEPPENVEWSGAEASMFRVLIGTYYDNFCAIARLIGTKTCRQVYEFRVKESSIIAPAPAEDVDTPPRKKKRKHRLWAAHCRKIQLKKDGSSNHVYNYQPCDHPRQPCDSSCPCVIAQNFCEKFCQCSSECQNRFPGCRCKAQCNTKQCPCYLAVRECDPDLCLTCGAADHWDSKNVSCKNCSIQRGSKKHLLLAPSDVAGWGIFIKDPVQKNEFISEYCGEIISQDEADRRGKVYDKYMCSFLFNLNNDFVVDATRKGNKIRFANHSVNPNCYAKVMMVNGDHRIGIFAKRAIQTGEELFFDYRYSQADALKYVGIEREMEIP

One assay concerns the target EZH2 (Homo sapiens (Human), UniProt Q15910). Briefly: PRC2 enzyme assay on peptide substrates.
Settings: not given
Format: biochemical. From the text: General Materials. S-adenosylmethionine (SAM), S-adenosylhomocyteine (SAH), bicine, KCl, Tween20, dimethylsulfoxide (DMSO) and bovine skin gelatin (BSG) were purchased from Sigma-Aldrich at the highest level of purity possible. Dithiothreitol (DTT) was purchased from EMD. ^3H-SAM was purchased from American Radiolabeled Chemicals with a specific activity of 80 Ci/mmol. 384-well streptavidin Flashplates were purchased from PerkinElmer.
Substrates. […] The sequences are listed below.
Recombinant PRC2 Enzymes. Human PRC2 enzymes were purified as 4-component enzyme complexes co-expressed in Spodoptera frugiperda (sf9) cells using a baculovirus expression system. The subunits expressed were wild-type EZH2 (NM_004456) or EZH2 Y641F, N, H, S or C mutants generated from the wild-type EZH2 construct, EED (NM_003797), Suz12 (NM_015355) and RbAp48 (NM_005610). The EED subunit contained an N-terminal FLAG tag that was used to purify the entire 4-component complex from sf9 cell lysates.
General Procedure for PRC2 Enzyme Assays on Peptide Substrates. The assays were all performed in a buffer consisting of 20 mM bicine (pH=7.6), 0.5 mM DTT, 0.005% BSG and 0.002% Tween20, prepared on the day of use. […] DMSO (1 μL) was added to columns 11, 12, 23, 24, rows A-H for the maximum signal control, and SAH, a known product and inhibitor of PRC2 (1 μL) was added to columns 11, 12, 23, 24, rows I-P for the minimum signal control. A cocktail (40 μL) containing the wild-type PRC2 enzyme and H3K27me0 peptide or any of the Y641 mutant enzymes and H3K27me2 peptide was added by Multidrop Combi (Thermo). The compounds were allowed to incubate with PRC2 for 30 min at 25° C., then a cocktail (10 μL) containing a mixture of non-radioactive and ^3H-SAM was added to initiate the reaction (final volume=51 μL). […] The assays were stopped by the addition of non-radioactive SAM (10 μL) to a final concentration of 600 μM, which dilutes the ^3H-SAM to a level where its incorporation into the peptide substrate is no longer detectable. 50 μL of the reaction in the 384-well polypropylene plate was then transferred to a 384-well Flashplate and the biotinylated peptides were allowed to bind to the streptavidin surface for at least 1 h before being washed three times with 0.1% Tween20 in a Biotek ELx405 plate washer. The plates were then read in a PerkinElmer TopCount platereader to measure the quantity of ^3H-labeled peptide bound to the Flashplate surface, measured as disintegrations per minute (dpm) or alternatively, referred to as counts per minute (cpm).
Where dpm=disintegrations per minute, cmpd=signal in assay well, and min and max are the respective minimum and maximum signal controls.
Where top and bottom are the normally allowed to float, but may be fixed at 100 or 0 respectively in a 3-parameter fit. The Hill Coefficient normally allowed to float but may also be fixed at 1 in a 3-parameter fit. Y is the % inhibition and X is the compound concentration.
As a reminder, the IC50 is the concentration that inhibits the measured activity by half. For the compound `Cc1cc(C)c(CNC(=O)c2cc(Br)cc3c2cnn3C2CCOCC2)c(=O)[nH]1` [Compound D-31], the IC50 lay in the range of 300 to 1000 nM.

Staying with this assay, now noted: PRC2 enzyme assays on peptide substrates; 4 nM enzyme, 30 min preincubation at 25° C.; read-out: EZH2 IC50.
Consider `Cc1cc(C)c(CNC(=O)c2cc(-c3ccc(N4CCN(C)CC4)nc3)nc3c2cnn3C(C)C)c(=O)[nH]1` [Compound A-11, N-((4,6-dimethyl-2-oxo-1,2-dihydropyridin-3-yl)methyl)-1-isopropyl-6-(6-(4-methylpiperazin-1-yl)pyridin-3-yl)-1H-pyrazolo[3,4-b]pyridine-4-carboxamide], for which the IC50 is 300 to 1000 nM.
The same measure, in the same setting: for `Cc1cc(C)c(CNC(=O)c2cc(-c3cccc(CNC4CCCCC4N)c3)nc3c2cnn3C(C)C)c(=O)[nH]1` (stereo not shown) [Compound A-25] the value was 300 to 1000 nM.
Still for that read-out and setting: for `CNCCN(C)Cc1ccc(-c2cc(C(=O)NCc3c(C)cc(C)[nH]c3=O)c3cnn(C(C)C)c3c2)cc1` [Compound A-40] the value was 300 to 1000 nM; for `Cc1cc(C)c(CNC(=O)c2cc(C3CCN(C(=O)C4CCNCC4)CC3)nc3c2cnn3C(C)C)c(=O)[nH]1` [Compound B-42], 300 to 1000 nM.
Still for that read-out and setting: the figure for `Cc1cc(C)c(CNC(=O)c2cc(C3CCN(C(=O)C4CCN(C)C4)CC3)nc3c2cnn3C(C)C)c(=O)[nH]1` (stereo not shown) [Compound B-43] is 300 to 1000 nM; for `Cc1cc(C)c(CNC(=O)c2cc(C3=CCN(C4CCN(C)CC4)CC3)nc3c2cnn3C(C)C)c(=O)[nH]1` [Compound B-52] it is 300 to 1000 nM.
On to `Cc1cc(C)c(CNC(=O)c2cc(C3=CCN(C(=O)C4CCNC4)CC3)nc3c2cnn3C(C)C)c(=O)[nH]1` (stereo not shown) [Compound B-54], for which the 50% inhibitory concentration (IC50) was 300 to 1000 nM.
Regarding `Cc1cc(C)c(CNC(=O)c2cc(C3CCN(C(=O)C4CCNC4)CC3)nc3c2cnn3C(C)C)c(=O)[nH]1` (stereo not shown) [Compound B-59], the IC50 lay in the range of 300 to 1000 nM.
On the same count and under the same terms, the figure for `Cc1cc(C)c(CNC(=O)c2cc(C3CCN(C4CCN(C)CC4)CC3)nc3c2cnn3C(C)C)c(=O)[nH]1` [Compound B-74] is 300 to 1000 nM.
Same read-out and setting: the figure for `Cc1cc(C)c(CNC(=O)c2cc(Br)cc3c2cnn3C2CCCC2)c(=O)[nH]1` [Compound D-1, 5-bromo-1-cyclopentyl-N-((4,6-dimethyl-2-oxo-1,2-dihydropyridin-3-yl)methyl)-1H-indazole-4-carboxamide] is 300 to 1000 nM; for `Cc1cc(C)c(CNC(=O)c2cc(Br)cc3c2cnn3C2CCCC2)c(=O)[nH]1` [Compound D-40] it is below 300 nM; for `Cc1cc(C)c(CNC(=O)c2cc(C3=CCN(CCN(C)C)CC3)cc3c2cnn3C2CCCC2)c(=O)[nH]1` [Compound D-56] it is 300 to 1000 nM.
